Assay results reported in patent US9518052B2, “Pyrazolopyridines and pyrazolopyrimidines” (Pfizer Inc., priority 2014, dated 2016).
Counter-ions that a name gives are not always drawn.

Protein sequences, listed by entry. Tags and fused reporters are not part of them.
UniProt P29597, whole entry, species assumed: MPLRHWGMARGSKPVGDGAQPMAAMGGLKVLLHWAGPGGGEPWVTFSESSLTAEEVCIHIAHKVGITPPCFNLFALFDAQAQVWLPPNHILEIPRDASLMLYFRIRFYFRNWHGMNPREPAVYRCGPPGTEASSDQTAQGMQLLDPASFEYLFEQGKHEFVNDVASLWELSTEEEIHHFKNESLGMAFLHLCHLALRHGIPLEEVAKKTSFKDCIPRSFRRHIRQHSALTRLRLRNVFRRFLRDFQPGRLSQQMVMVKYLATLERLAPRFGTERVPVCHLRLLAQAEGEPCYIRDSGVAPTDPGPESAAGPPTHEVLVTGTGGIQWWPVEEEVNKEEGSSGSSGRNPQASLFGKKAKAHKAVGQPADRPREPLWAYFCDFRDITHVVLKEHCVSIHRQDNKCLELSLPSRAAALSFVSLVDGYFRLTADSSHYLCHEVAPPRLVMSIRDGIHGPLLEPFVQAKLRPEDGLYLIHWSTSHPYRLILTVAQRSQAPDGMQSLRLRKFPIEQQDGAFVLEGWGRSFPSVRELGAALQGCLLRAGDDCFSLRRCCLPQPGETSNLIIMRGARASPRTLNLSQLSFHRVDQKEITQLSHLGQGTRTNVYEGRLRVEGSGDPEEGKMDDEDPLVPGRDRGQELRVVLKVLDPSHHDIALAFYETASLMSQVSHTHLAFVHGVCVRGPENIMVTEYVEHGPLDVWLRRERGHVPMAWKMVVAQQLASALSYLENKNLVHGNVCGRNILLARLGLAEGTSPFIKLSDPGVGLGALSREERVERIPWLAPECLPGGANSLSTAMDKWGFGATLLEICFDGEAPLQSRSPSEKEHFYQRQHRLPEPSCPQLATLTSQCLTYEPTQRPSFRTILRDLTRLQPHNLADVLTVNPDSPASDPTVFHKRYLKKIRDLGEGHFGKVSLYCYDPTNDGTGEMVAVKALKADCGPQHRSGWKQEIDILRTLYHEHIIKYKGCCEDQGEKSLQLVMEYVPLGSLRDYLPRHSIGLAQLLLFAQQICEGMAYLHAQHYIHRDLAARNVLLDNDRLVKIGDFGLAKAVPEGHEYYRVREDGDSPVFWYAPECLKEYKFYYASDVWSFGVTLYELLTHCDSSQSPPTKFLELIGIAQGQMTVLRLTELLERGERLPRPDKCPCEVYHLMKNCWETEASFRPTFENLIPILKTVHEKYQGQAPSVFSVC

Target: TYK2 (Homo sapiens (Human), UniProt P29597)
Experiment: JAK Caliper Enzyme Assay at 1 mM ATP (TYK2)
Type: biochemical
Conditions: Caliper assay at 1 mM ATP
Protocol: JAK Caliper Enzyme Assay at 1 mM ATP
Test article was solubilized in dimethyl sulfoxide (DMSO) to a stock concentration of 30 mM. An 11-point half log dilution series was created in DMSO with a top concentration of 600 μM. […] The compound plates were diluted 1 to 60 resulting in a top final assay compound concentration of 10 μM and a 2% DMSO concentration.
Test article and assay controls were added to a 384-well plate. Reaction mixtures contained 20 mM HEPES, pH 7.4, 10 mM magnesium chloride, 0.01% bovine serum albumin (BSA), 0.0005% Tween 20, 1 mM ATP and 1 μM peptide substrate. […] Enzyme concentrations and incubation times were optimized for each new enzyme preps and were modified slightly over time to ensure 20%-30% phosphorylation. The assays were stopped with a final concentration of 10 mM EDTA, 0.1% Coating Reagent and 100 mM HEPES, pH=7.4. The assay plates were placed on a Caliper Life Science Lab Chip 3000 (LC3000) instrument, and each well was sampled using appropriate separation conditions to measure the unphosphorylated and phosphorylated peptide.

IC50 [µM]	SMILES
6.33	CNC(=O)c1n[nH]c2cc(-c3cc(F)c(O)cc3CC(F)(F)F)nc(NCc3cnccc3N(C)S(C)(=O)=O)c12 [Example 48, 6-[5-fluoro-4-hydroxy-2-(2,2,2-trifluoroethyl)phenyl]-N-methyl-4-[({4-[methyl(methylsulfonyl)amino]pyridin-3-yl}methyl)amino]-1H-pyrazolo[4,3-c]pyridine-3-carboxamide]
3.6	CNC(=O)c1n[nH]c2cc(-c3cc(F)c(O)cc3C3CC3)nc(NCc3cccnc3N(C)S(C)(=O)=O)c12 [Example 49, 6-(2-cyclopropyl-5-fluoro-4-hydroxyphenyl)-N-methyl-4-[({2-[methyl(methylsulfonyl)amino]pyridin-3-yl}methyl)amino]-1H-pyrazolo[4,3-c]pyridine-3-carboxamide]
1.96	CS(=O)(=O)N(CCO)c1ccccc1CNc1nc(-c2cc(F)c(O)cc2CC(F)(F)F)nc2[nH]nc(C(N)=O)c12 [Example 101, 6-(5-fluoro-4-hydroxy-2-(2,2,2-trifluoroethyl)phenyl)-4-((2-(N-(2-hydroxyethyl)methylsulfonamido)benzyl)amino)-1H-pyrazolo[3,4-d]pyrimidine-3-carboxamide]
3.32	CCc1cc(O)ccc1-c1cc2[nH]ncc2c(N2CC(Oc3cc(C#N)ccc3Cl)C2)n1 [Example 120, 4-chloro-3-({1-[6-(2-ethyl-4-hydroxyphenyl)-1H-pyrazolo[4,3-c]pyridin-4-yl]azetidin-3-yl}oxy)benzonitrile formate]
1.41	CCc1cc(O)c(F)cc1-c1cc2[nH]ncc2c(N(CCN2CCOCC2)Cc2ccccc2N(C)S(C)(=O)=O)n1 [Example 140, N-[2-({[6-(2-ethyl-5-fluoro-4-hydroxyphenyl)-1H-pyrazolo[4,3-c]pyridin-4-yl][2-(morpholin-4-yl)ethyl]amino}methyl)phenyl]-N-methylmethanesulfonamide]
3.67	Oc1cc(CC(F)(F)F)c(-c2nc(NCCC3CC3)c3cn[nH]c3n2)cc1F [Example 152, 4-{4-[(2-cyclopropylethyl)amino]-1H-pyrazolo[3,4-d]pyrimidin-6-yl}-2-fluoro-5-(2,2,2-trifluoroethyl)phenol]
